Yeast mating assay 2: variants of the scFv Ab-91

Reference: Engelhart et al. 2022, doi:10.1038/s41597-022-01779-4. File: FLAb, binding data.

The target is the same throughout: PDVDLGDISGINAS, from the HR2 region of SARS-CoV-2 spike.

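Phage display of a naive human antibody library on the peptide gave the parent. In library AAYL51, one, two or three CDR residues were substituted; doubles and triples were drawn at random. In AlphaSeq, yeast of one mating type display the scFv and yeast of the other type display the target. Pairs that bind mate more often; barcode pairs of the diploids are counted by sequencing. Read counts were normalised to the haploid input and turned into Kd by a linear fit to BCL2-family pairs of known affinity, for each replicate. There are three technical replicates.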

Each scFv is VL, three GGGGS repeats, VH, as in the parent Ab-91, and differs from it in the CDRs of the heavy chain only.
VL: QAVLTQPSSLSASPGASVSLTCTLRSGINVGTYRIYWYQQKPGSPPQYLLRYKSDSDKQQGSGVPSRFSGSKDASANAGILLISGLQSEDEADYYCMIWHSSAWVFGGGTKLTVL
VH: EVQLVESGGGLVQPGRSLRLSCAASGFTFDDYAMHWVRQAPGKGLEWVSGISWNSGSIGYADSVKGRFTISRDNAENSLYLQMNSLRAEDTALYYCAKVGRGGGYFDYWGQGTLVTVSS

Each variant is given by its three heavy chain CDRs, as the data file delimits them; those of the parent are GFTFDDYAMH, GISWNSGSIGYADSVK, VGRGGGYFDY. Numbers give log10(Kd / nM), so 0 is 1 nM and 3 is 1 µM. Smaller is tighter. A mean of the replicates is given; it leaves out those without a signal. A pair that was not seen in that replicate is written "n.d."; this usually means weak binding, but a binder can also be missed. As a blank, each scFv also met three strains without target: over library AAYL51, 21% of these pairings were detected, typically at 4.54 and seldom below 3.26. The control count says in how many pairings with the empty strains this scFv gave a signal, with their mean in brackets. In this assay the parent's reference entry averaged 1.86; its copy inside this library read 0.88.

CDR-H1 | CDR-H2 | CDR-H3 | replicates, log10 nM | log10 Kd (nM), mean | signal with controls
GFTFDDAAMH | GISWNSGSIGYADSVK | VGRGGGYPTY | n.d. / 4.93 / n.d. | 4.93 | 6 of 9 (5.34)
GFTFDDYAMH | GIRWNSVSCGYADSVK | VGRGGGYFDY | n.d. / n.d. / n.d. | n.d. | 1 of 9 (3.17)
GFTQDDYAMH | GISWNSGSIFYADSVK | VGRGPGYFDY | n.d. / 5.41 / n.d. | 5.41 | 3 of 9 (3.41)
GFLFPDYAMH | GISWNSGSIGYADSVK | VGRGGEYFDY | 1.23 / 1.53 / 1.17 | 1.31 | 3 of 9 (4.65)
GFTEDDPAMH | GISWNSGSIGYADSVK | VGRGGNYFDY | 4.58 / 5.52 / 4.41 | 4.84 | 2 of 9 (4.46)
GFGFDDYAMH | GISWNSGSIYYADSVK | VGRGGGMFDY | n.d. / n.d. / n.d. | n.d. | 2 of 9 (4.01)
GFTFDDYASH | GASENSGSIGYADSVK | VGRGGGYFDY | n.d. / 5.09 / n.d. | 5.09 | 1 of 9 (4.84)
GFTFDDYAMH | EISWHSGSIGYADSVK | VGRGGDYFDY | 3.60 / n.d. / n.d. | 3.60 | 0 of 9
GFTFTDYAMH | GISWNSVSIGYADSVK | VGRGGGYFDY | 1.11 / 1.25 / 0.83 | 1.06 | 0 of 9
GFTFDDCSMH | GISWNSGSIGYADSVK | VGRGGGYYDY | 4.79 / n.d. / n.d. | 4.79 | 3 of 9 (4.73)
GFTFLNYAMH | GISHNSGSIGYADSVK | VGRGGGYFDY | 0.92 / 0.99 / 0.45 | 0.79 | 1 of 9 (4.08)
GFTFDDYAMH | GISWNSGSIGYADSAQ | YGRGGGYFDY | n.d. / n.d. / n.d. | n.d. | 1 of 9 (4.02)
GYTFDDYAMH | GISWGSGSIGYADSVK | VGRGVGYFDY | 5.41 / 4.66 / n.d. | 5.03 | 7 of 9 (5.12)
IFTFDDYAMH | GISWNSGSIGHADSVK | VGRGGGYFNY | 5.11 / 3.99 / n.d. | 4.55 | 7 of 9 (4.06)
DFTFHDYAMH | GISTNSGSIGYADSVK | VGRGGGYFDY | 1.14 / 1.83 / 1.01 | 1.33 | 0 of 9
GFTFDDYAMH | GISWNSGSIGYADSVK | HGRGGGYFDY | n.d. / n.d. / n.d. | n.d. | 0 of 9
TFTFDDYAMH | GIVWNSGSIGYADSVK | VGRGGGGFDY | 3.95 / n.d. / n.d. | 3.95 | 0 of 9
DFTFDDYAMH | GISWNSGSIGYSDSVK | VGRGGNYFDY | 4.16 / 4.29 / 4.98 | 4.47 | 7 of 9 (4.45)
GFTFDDYHMH | GISWNSGSIGAADSVK | VGRGGGYFDY | 4.43 / 5.50 / 5.28 | 5.07 | 9 of 9 (5.27)
GFTFDDYAMH | GISWNSGSITYADDVK | VGRGGGYFDY | 4.37 / 4.83 / 4.62 | 4.61 | 5 of 9 (4.75)
GFTFDDYAMH | GISWNSGSIYYAMSVK | VGRGGGYFDY | n.d. / n.d. / n.d. | n.d. | 2 of 9 (4.11)
GFTFDDYAMH | GISWNSGSIGYADDVK | VGRGPGYFDY | 4.65 / n.d. / n.d. | 4.65 | 1 of 9 (4.29)
GFTFDDYAMH | GISWGSGSIGYADSVK | VGCGGGYFDY | n.d. / n.d. / n.d. | n.d. | 0 of 9
GFTFDDYAMH | LISWNSGSIGGRDSVK | VGRGGGYFDY | n.d. / n.d. / n.d. | n.d. | 1 of 9 (3.81)
GKTFDDYNMH | GCSWNSGSIGYADSVK | VGRGGGYFDY | n.d. / n.d. / n.d. | n.d. | 0 of 9
GFTIDDYAMH | GYSFNSGSIGYADSVK | VGRGGGYFDY | 4.26 / n.d. / 5.42 | 4.84 | 4 of 9 (4.83)
GFTFDDYAMH | GISRNSGSIGYADEVK | VGRGGGYGDY | 4.71 / n.d. / n.d. | 4.71 | 3 of 9 (4.12)
GFTFDDYAMH | GQSWTSGSIGYADSVK | VGRGGGYDDY | n.d. / n.d. / n.d. | n.d. | 0 of 9
GFTFDDYAMH | GIQWNVGSIGYADTVK | VGRGGGYFDY | n.d. / n.d. / n.d. | n.d. | 0 of 9
GFRFDDYAMH | GISWNSGFIQYADSVK | VGRGGGYFDY | 4.05 / 5.27 / 6.11 | 5.14 | 8 of 9 (4.90)
GFTKDDYAMH | GISWNSGSIGYADSVK | VGVGGGYFDS | n.d. / 4.74 / 5.18 | 4.96 | 3 of 9 (5.13)
GFTFDDRAMH | GISYNSGSIGYVDSVK | VGRGGGYFDY | 4.66 / 4.83 / 4.90 | 4.80 | 3 of 9 (4.27)
GFTFDDYAMH | GISWNSTSIGYADSVK | VGRGGGYGMY | n.d. / n.d. / n.d. | n.d. | 0 of 9
GFTFDDYRMH | GISWNSGSCGYADSVK | VGRGGGYFDY | 1.89 / 1.92 / 1.76 | 1.86 | 0 of 9
GFTTDDYAMH | GISWNSGSIGYADSKK | VGRGAGYFDY | n.d. / n.d. / n.d. | n.d. | 1 of 9 (2.35)
LFTFDDYADH | GISWNSGSIGYADSVK | VGRGGGYFDY | 5.06 / 5.50 / n.d. | 5.28 | 8 of 9 (4.85)
LFTFDDYAMH | GISRNSGSIGYAKSVK | VGRGGGYFDY | n.d. / n.d. / n.d. | n.d. | 1 of 9 (2.98)
GFTFDDYAMH | GISMNSGSIGYADSVK | VIRGGGYFDY | 1.31 / 1.26 / 0.91 | 1.16 | 1 of 9 (4.25)
GFTFDDHWMH | GISWNSGSIGYADSVA | VGRGGGYFDY | n.d. / n.d. / n.d. | n.d. | 1 of 9 (2.73)
RFTFDDYAMH | GISWNSGSIGYADSVK | VARGGNYFDY | 5.20 / n.d. / n.d. | 5.20 | 1 of 9 (3.25)
GFTFDLYAMH | GPSWNSGSIGYADSNK | VGRGGGYFDY | n.d. / n.d. / n.d. | n.d. | 1 of 9 (4.51)
GFTFDDYAMH | GISWNSGSIGYQDSVK | MGRGGGRFDY | n.d. / n.d. / n.d. | n.d. | 0 of 9
GFTFDDYAMH | GISWISGSHGYADSVK | VGRGGGYFDY | n.d. / 4.92 / n.d. | 4.92 | 2 of 9 (4.40)

Excerpt, the final 5 entries:

CDR-H1,CDR-H2,CDR-H3,"replicates, log10 nM","log10 Kd (nM), mean",signal with controls
GFTFDDHWMH,GISWNSGSIGYADSVA,VGRGGGYFDY,n.d. / n.d. / n.d.,n.d.,1 of 9 (2.73)
RFTFDDYAMH,GISWNSGSIGYADSVK,VARGGNYFDY,5.20 / n.d. / n.d.,5.20,1 of 9 (3.25)
GFTFDLYAMH,GPSWNSGSIGYADSNK,VGRGGGYFDY,n.d. / n.d. / n.d.,n.d.,1 of 9 (4.51)
GFTFDDYAMH,GISWNSGSIGYQDSVK,MGRGGGRFDY,n.d. / n.d. / n.d.,n.d.,0 of 9
GFTFDDYAMH,GISWISGSHGYADSVK,VGRGGGYFDY,n.d. / 4.92 / n.d.,4.92,2 of 9 (4.40)